# According to PubChem BioAssay AID624304 (Sanford-Burnham Center for Chemical Genomics, 2012):
# The list shows a part of the results, in another mix than the full data. Calls of active or inactive are those of the source.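 How the source made its calls: active means interference check ratio from 0.5 to 1.5 plus GFP to RFP signal ratio inhibition reaching or exceeding a fixed threshold (cut at about 30% in these data, passing the limit was not always enough); inactive means the rest.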
# Assay: suppressors of acrylamide-induced Pgst-4::GFP reporter in worms, primary screen, SKN-1 inhibitor project, whole organism, uHTS, GFP/RFP fluorescence ratio, strain VP596 (AID 624304)
# Conditions: C. elegans VP596 Pgst-4::GFP/RFP ratio, 24 h, at 21.8 µM, hits give high values
row,Compound,inhibition
1,CCC(=O)N(c1ccccc1)C1(COC)CCN(CCc2cccs2)CC1,inactive: 12.6%
2,CCC(=O)N(c1ccccc1)C1(COC)CCN(CCn2nnn(CC)c2=O)CC1,inactive: 9.59%
